Experimental data reported in US4238473A, “Artificial oligosaccharide antigenic determinants” (priority 1975, dated 1980).

Test system: Rabbit antisera raised to Le^a -BSA antigens
Experiment: Immunodiffusion of rabbit antisera raised to Le^a -BSA antigens
Format: binding

With “HSA: human serum albumin, carrier protein” as the substance, how does the “line of precipitation on immunodiffusion” value read?
The value was “No line of precipitation”.
